{"source": "ChEMBL document CHEMBL2331222", "about": "“Discovery of novel inhibitors of signal transducer and activator of transcription 3 (STAT3) signaling pathway by virtual screening” (Eur J Med Chem, 2013)", "test_system": "HepG2", "experiment": "Selectivity ratio of inhibitory activity for STAT3 in IL-6-stimulated human HepG2 cells to inhibitory activity for IFN-gamma-stimulated STAT1 (unknown origin) at 10 uM", "assay_type": "cell-based", "data": [{"smiles": "CCC(Sc1nc2ccc(NC(=O)c3ccc(OC)cc3)cc2s1)C(=O)Nc1ccc(Br)cc1", "note": "(stereo unspecified)", "values": [{"measurement": "Ratio", "value": "> 6"}]}]}
